Source: patent US12043613B2, “Inhibitors of SARM1” (Disarm Therapeutics, Inc., priority 2020, dated 2024)

Amino acid sequences for entries named in this document (tags omitted). Chains listed by the source or under a name are the forms on record and can include a tag or linker. Residues count along the entry.
UniProt Q6SZW1, 28-724 with tags or gaps limits assumed: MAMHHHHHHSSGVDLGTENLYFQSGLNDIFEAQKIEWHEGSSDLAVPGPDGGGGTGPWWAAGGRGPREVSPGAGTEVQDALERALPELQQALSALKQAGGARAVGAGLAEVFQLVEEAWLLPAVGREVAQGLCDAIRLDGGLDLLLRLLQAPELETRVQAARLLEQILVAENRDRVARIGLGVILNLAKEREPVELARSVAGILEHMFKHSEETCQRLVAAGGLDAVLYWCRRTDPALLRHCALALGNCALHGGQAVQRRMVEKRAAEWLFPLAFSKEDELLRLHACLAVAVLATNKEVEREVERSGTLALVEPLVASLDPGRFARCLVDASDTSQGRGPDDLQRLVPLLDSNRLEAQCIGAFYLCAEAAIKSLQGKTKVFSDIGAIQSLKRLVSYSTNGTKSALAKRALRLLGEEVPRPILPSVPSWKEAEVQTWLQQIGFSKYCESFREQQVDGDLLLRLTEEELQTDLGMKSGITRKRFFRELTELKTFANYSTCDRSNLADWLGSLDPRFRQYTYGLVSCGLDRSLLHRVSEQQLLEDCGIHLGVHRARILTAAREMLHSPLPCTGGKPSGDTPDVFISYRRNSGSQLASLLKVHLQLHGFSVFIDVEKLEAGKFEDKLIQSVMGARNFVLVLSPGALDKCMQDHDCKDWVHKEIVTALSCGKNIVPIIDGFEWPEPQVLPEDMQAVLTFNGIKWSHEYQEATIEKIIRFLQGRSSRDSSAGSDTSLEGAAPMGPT

Target: SARM1 (ARM-SAM-TIR, full length SARM1) (Homo sapiens, UniProt Q6SZW1)
Conditions: read-out: SARM1 IC50; ARM-SAM-TIR lysate 5 μg/mL from NRK1-HEK293T cells, 2 h pre-incubation, 5 uM NAD+, 2 hr room temperature

| SMILES | IC50 [µM] |
| --- | --- |
| N#Cc1c(-c2ccncc2)n[nH]c1N1CCC(Cc2ccc(F)c(F)c2)C1=O (single isomer, unassigned) | > 1 |
| O=C1C(Cc2ccc(Cl)c(F)c2)CCCN1c1nc(-c2ccncc2)n[nH]1 (single isomer, unassigned) | < 0.05 |
| O=C1C(Cc2ccc(Cl)c(F)c2)CCN1c1cc(-c2ccncc2)n[nH]1 (single isomer, unassigned) | < 0.05 |
| O=C1C(Cc2ccc(Cl)cc2)CCN1c1cc(-c2ccncc2)n[nH]1 (single isomer, unassigned) | < 0.05 |
| O=C1C(Cc2ccc(Cl)nc2)CCN1c1[nH]nc(-c2ccncc2)c1F (single isomer, unassigned) | < 0.05 |
| O=C1C(Cc2ccc(Cl)nc2)CCN1c1cc(-c2ccncc2)n[nH]1 (single isomer, unassigned) | < 0.05 |
